Literature values as cited in US5874481A, “Fluorochemical solutions for the delivery of lipophilic pharmaceutical agents” (priority 1995, dated 1999).

Conditions: octanol/water; cited from earlier work

Compound: CC(=O)[C@H]1CC[C@H]2[C@@H]3CCC4=CC(=O)CC[C@]4(C)[C@H]3CC[C@]12C [^14 C-progesterone, progesterone]
- Log Po/w: 3.9
